Bioassay records deposited in PubChem BioAssay by National Center for Advancing Translational Sciences (NCATS).
Most compounds without a hit are left out; they make up all but 2.2% or so of the library.
GALK inh: galactokinase (human) inhibition; Purified GALK, Kinase-Glo residual ATP luminescence; Potency, µM (top dose mostly 57.5 µM), for inactives: top-dose activity change, negative = inhibition, usual class: inhibitors; 0.007% of 270,000 active; also: potency is read from the fitted curve at half-maximal effect; % is scaled to controls: 0 for no effect and ±100 for the full control effect
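Human GALK (5 nM) with 35 uM ATP and 100 uM galactose in 20 mM HEPES pH 8.0, 5 mM MgCl2, 60 mM NaCl, 1 mM DTT, 0.01% BSA. After 1 h at room temperature, leftover ATP was read by Kinase-Glo Plus luminescence.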
PI4K2A inh: PI4K2A (human) kinase inhibition | Q9BTU6 | purified PI4K2A, ADP-Glo luminescence, 1 h; active compounds read low | activity change, negative = inhibition, % at 76.9 µM | 0.13% of 420,000 active | AID 1346378; in the data active = activity change below about -50%; inconclusive = mostly about -30% to -49%;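 also: -100% = wells without enzyme as full effect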
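PI4K2A activity was measured by ADP-Glo luminescence: enzyme (4 ug/mL stock) and phosphatidylinositol (1.2 mM stock) in Tris pH 7.5/MgCl2/EGTA/Triton X-100 buffer were reacted with ATP (300 microM stock) for one hour at ambient temperature.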
miR-21 reporter: miR-21 reporter, rising signal | HeLa miR-21 FLuc reporter, luciferase, 48 h | Potency, µM (doses to about 38.3 µM), inactives show at the top dose reporter change, positive = more light | 340,000 tested, under 10 active | AID 2288; active = well fitted rising curve with a large enough effect; inconclusive = small, poorly fitted or top-dose-only effect; inactive = no such curve, though single readings can be large or run the other way;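 note: % of control where 0% means no effect; miR-21 action dims this reporter so a rising signal means less miR-21 action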
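HeLa cells stably expressing CMV-driven firefly luciferase with a downstream miR-21 binding sequence, endogenously expressing miR-21, were treated with titrations (up to about 40uM final) for 48 hours at 37 degree Celsius. Luciferase luminescence was read after lysis.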
Nrf2 ARE act: Nrf2 pathway activation; AREc32 ARE-luciferase reporter (MCF7-derived line), luminescence, 24 h; Potency, µM (series often up to 46.1 µM), for inactives: at the top dose activation, hits mostly activators; 0.31% of 410,000 active; also: potency is read from the fitted curve at half-maximal effect; % of control where 0% means no effect; nearly all actives have a fitted effect of over 65% in size
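Reporter line AREc32 (ARE-Fluc), seeded overnight in OPTI-MEM with 5% FBS; compound pin-transferred, 24 hr at 37 deg C, 5% CO2; luminescent read-out.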
Nrf2 block: Nrf2 pathway inhibition; A549 ARE-Fluc reporter, luciferase luminescence, 18-24 h; 2.1% of 360,000 active; Potency, µM (doses to about 46 µM), without a hit: at the top dose activity change, negative = inhibition, most hits filed as inhibitors; also: potency is read from the fitted curve at half-maximal effect; % is scaled to controls: 0 for no effect and ±100 for the full control effect; nearly all actives have a fitted effect of over 60% in size
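In this cell-based qHTS, ARE-driven firefly luciferase in A549 cells reports Nrf2 activity; the luminescent signal after BugLite lysis is the measured value, with a prior CellTiter-Fluor read for cell health.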
A549 tox: kills or reduces viability of A549 cells in Nrf2 counter-screen | Potency, µM (titrated, usually from 46 µM), without a hit: top-dose activity change, negative = cytotoxicity, most hits filed as inhibitors | 0.16% of 390,000 active | A549 ARE-Fluc cells, CellTiter-Fluor viability, 18-24 h | AID 504648; also: potency is read from the fitted curve at half-maximal effect; % is scaled to controls: 0 for no effect and ±100 for the full control effect
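Cytotoxicity counterscreen: CellTiter-Fluor fluorescence was measured in A549 ARE_Fluc cells after 18-24 h of compound exposure in a concentration series. The subsequent BugLite luminescent read reports ARE-luciferase activity.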
Numbers without * were called inactive; ? = inconclusive; . = not tested or not shown. Unless noted, calls follow the shape of the dose curve; as a rule, active = well fitted curve in the direction sought with a large enough effect; inconclusive = small, poorly fitted or top-dose-only effect, or another doubt; inactive = no such curve, though single readings can be large; an effect the other way counts as inactive or inconclusive.

Key to letters: A = GALK inh; B = PI4K2A inh; C = miR-21 reporter; D = Nrf2 ARE act; E = Nrf2 block; F = A549 tox
1) CCOc1ccc(Nc2nc3c(S(=O)(=O)c4ccc(C(C)C)cc4)nnn3c3ccsc23)cc1
  A = .	B = 0	C = 4%	D = 0%	E = 17%	F = 7%

2) Cc1ccc(S(=O)(=O)c2nnn3c2nc(Nc2ccc(C(C)C)cc2)c2sccc23)cc1C
  A = .	B = -1	C = -1%	D = -1%	E = 21µM*	F = 0%

3) O=C(Nc1ccc(F)cc1F)C1CCN(c2nnc(-n3cccc3)s2)CC1
  A = .	B = -3	C = .	D = .	E = .	F = .

4) COc1ccc(Cc2nn3c(-c4ccccc4Br)nnc3s2)cc1
  A = -2%	B = -1	C = -14%	D = 2%	E = 16µM*	F = -3%

5) Brc1ccccc1-c1nnc2sc(Cc3ccccc3)nn12
  A = -1%	B = 2	C = -11%	D = 0%	E = 6%	F = ?

6) COC(=O)[C@]12C[C@H](CC(=O)N3CCCC3)C(=O)N(Cc3cccc4ccccc34)C1=C[C@H](C1CCCC1)O[C@@H]2C
  A = .	B = -1	C = .	D = .	E = .	F = .

7) O=C1CCCN1c1ccc(S(=O)(=O)Oc2ccc(Cl)cc2)cc1[N+](=O)[O-]
  A = -7%	B = 0	C = 18%	D = 0%	E = 7.3µM*	F = ?

8) CCN1C/C(=C/c2ccc(N3CCOCC3)cc2)C(=O)/C(=C/c2ccc(N3CCOCC3)cc2)C1
  A = 1%	B = -6	C = ?	D = ?	E = ?	F = ?

9) CN1C/C(=C\c2ccc(N3CCOCC3)cc2)C(=O)/C(=C/c2ccc(N3CCOCC3)cc2)C1
  A = .	B = 4	C = 23%	D = 11µM*	E = 12%	F = -11%

10) N#Cc1cccc(OC2=NS(=O)(=O)c3ccccc32)c1
  A = .	B = .	C = .	D = .	E = 11%	F = 10%

11) O=S1(=O)Nc2c(cc(Cl)c3ccc(Cl)nc23)-c2ccccc21
  A = .	B = .	C = .	D = .	E = 19%	F = -3%

12) Cc1ccc2ccc3c(c2n1)NS(=O)(=O)c1ccc(C(F)(F)F)cc1-3
  A = .	B = .	C = .	D = .	E = 8.2µM*	F = 7.3µM*

13) COc1cccc(C#CC2=CC(=O)C[C@H](c3ccc(F)cc3)C2)c1
  A = .	B = 10	C = .	D = 16µM*	E = .	F = .

14) O=C1C=C(C#Cc2ccc(Oc3ccccc3)cc2)C[C@@H](c2ccc(F)cc2)C1
  A = .	B = 4	C = .	D = 25%	E = .	F = .

15) CC1(C)CC(=O)C/C(=N/NC(=O)c2ccc(-c3ccccc3)cc2)C1
  A = 0%	B = -3	C = -1%	D = 0%	E = 16µM*	F = -1%

16) Cc1ccccc1C(=O)Nc1ccc(C(=O)N2CCCC(N(C)C)c3ccccc32)cc1 (stereo not drawn)
  A = .	B = -2	C = .	D = .	E = .	F = .

17) CCOCCCNC(=O)/C(C#N)=C/c1ccc(Cl)c([N+](=O)[O-])c1
  A = -1%	B = 9	C = ?	D = -1%	E = 5%	F = 0%

18) CCOCCCNC(=O)/C(C#N)=C/c1cc(OC)c(O)c([N+](=O)[O-])c1
  A = 10%	B = -7	C = 22%	D = 3%	E = -4%	F = 18µM*

19) CC(C)(C)NC(=O)C(c1cccnc1)N(C(=O)c1cnc[nH]1)c1ccc(C(C)(C)C)cc1 (stereo not drawn)
  A = .	B = -8	C = .	D = .	E = .	F = .

20) CCOC(=O)c1cn(-c2c(Cl)cccc2Cl)c2cc(Cl)c([N+](=O)[O-])cc2c1=O
  A = .	B = -3	C = -8%	D = 11µM*	E = 5%	F = 8%

21) COc1ccc(-c2ccccc2[C@H]2[C@@H]3C=CC[C@@H](C)[C@@H]3C(=O)N2Cc2ccccc2)cc1
  A = .	B = 5	C = .	D = 3%	E = 18µM*	F = ?

22) COc1ccc(/C=C/c2ccccc2)cc1C1C2C=CCC(C)C2C(=O)N1Cc1ccccc1 (stereo not drawn)
  A = .	B = .	C = .	D = .	E = ?	F = 12%

23) COc1ccc(-c2ccc(OC)c([C@H]3[C@H]4C=CC[C@@H](C)[C@@H]4C(=O)N3Cc3ccccc3)c2)cc1OC
  A = -3%	B = -1	C = 0%	D = 0%	E = ?	F = -9%

24) COc1ccc(-c2c([C@H]3[C@H]4C=CC[C@@H](C)[C@@H]4C(=O)N3Cc3ccccc3)ccc3ccccc23)cc1OC
  A = 1%	B = -1	C = 30%	D = 7%	E = 18µM*	F = ?

25) COc1ccc(-c2c(C3C4C=CCC(C)C4C(=O)N3Cc3ccccc3)ccc3ccccc23)cc1 (stereo not drawn)
  A = .	B = .	C = .	D = .	E = 21µM*	F = -6%

26) COc1ccc(Br)cc1[C@H]1[C@H]2C=CC[C@@H](C)[C@@H]2C(=O)N1Cc1ccccc1
  A = -4%	B = 12	C = 12%	D = -1%	E = 21µM*	F = -17%

27) Cc1cc(Br)cn2c(Cc3ccsc3)c(-c3cccc(Cl)c3)nc12
  A = .	B = 1	C = .	D = 7%	E = .	F = .

28) COc1ccc(Cc2c(-c3ccco3)nc3ccc(Br)cn23)c(C)c1
  A = .	B = ?	C = .	D = 8.9µM*	E = .	F = .

29) Cc1cc(Br)cn2c(Cc3ccccc3)c(-c3ccco3)nc12
  A = .	B = -8	C = .	D = 10µM*	E = .	F = .

30) COc1ccc(Cc2c(-c3ccco3)nc3ccc(Cl)cn23)c(C)c1
  A = .	B = -14	C = .	D = ?	E = .	F = .

31) Cc1cc(Br)cn2c(Cc3ccsc3)c(-c3ccco3)nc12
  A = .	B = -26	C = .	D = 7.1µM*	E = .	F = .

32) CCCN(C(=O)c1ccco1)c1nnc(-c2cccc(C)c2)s1
  A = 8%	B = 3	C = -56%	D = 10µM*	E = ?	F = 24%

33) CCN(C(=O)c1ccco1)c1nnc(-c2ccc(OC)cc2)s1
  A = -2%	B = 0	C = -52%	D = 24%	E = 8%	F = -2%

34) CC(CCC(C)C(C)(C)C)[C@@H]1CC[C@H]2C3C[C@H](OS(O)(=S)=S)[C@H]4C[C@H](OS(O)(=S)=S)[C@@H](OS(O)(=S)=S)C[C@]4(C)[C@H]3CC[C@]12C (stereo partly drawn) (tested in a mixture with another compound)
  A = .	B = -59*	C = .	D = 0%	E = ?	F = ?

35) C=CCN1C(=O)[C@@H](CC(=O)NCCCCc2ccccc2)[C@]2(C(=O)OC)CCCCC=C12
  A = .	B = 3	C = .	D = .	E = .	F = .

36) Cc1ccccc1/C=C1\C(=O)Nc2ccc(F)cc21
  A = 0%	B = 4	C = -1%	D = ?	E = 2.9µM*	F = ?

37) O=C1Nc2ccccc2/C1=C/c1ccccc1F
  A = -1%	B = 10	C = -13%	D = ?	E = 14%	F = 1%

38) COc1c(N2CCN(C(=S)NCc3ccccc3)C(C)C2)c(F)cc2c(=O)c(C(=O)O)cn(C3CC3)c12 (stereo not drawn)
  A = 0%	B = 4	C = ?	D = 0%	E = 23µM*	F = ?

39) O=C(Cc1csc(-c2cccc(Cl)c2)n1)Nc1cccc(S(=O)(=O)NC2=NCCC2)c1
  A = .	B = -4	C = .	D = 0%	E = 23µM*	F = -4%

40) O=C(CCl)Nc1cccc(S(=O)(=O)NC2=NCCCCC2)c1
  A = .	B = 2	C = .	D = ?	E = 21µM*	F = -1%

41) Cc1cccc(-c2nc(CC(=O)Nc3cccc(S(=O)(=O)NC4=NCCC4)c3)cs2)c1
  A = .	B = 3	C = .	D = -1%	E = -16%	F = 4%

42) O=C(Nc1cccc(S(=O)(=O)NC2=NCCC2)c1)c1ccc(C(F)(F)F)cc1
  A = .	B = -2	C = .	D = 3%	E = 18µM*	F = -2%

43) Cc1cc2c(s1)c1cnn(Cc3c(F)c(F)c(C)c(F)c3F)c(=O)c1n2C
  A = .	B = .	C = .	D = .	E = 10%	F = -4%
